Target: T1, FtsA (Escherichia coli, UniProt P0ABH0)
T1 construct: made in house; host or cells: E. coli C41(DE3)
Assay: SPR, EcFtsN^1-32 truncations and mutations binding to immobilised FtsA
Settings: SPR equilibrium response; peptide 1:2 dilution series from 20 μM; mean ± SEM (n ≥ 2 for each construct); asterisk: maximum response fixed during fitting, approximate values; ND: not determinable; read-out: SPR K^eqd
Procedure: SPR was performed using a Biacore T200 using CM5-sensor chips (Cytiva). Reference control and analyte channels were equilibrated in binding buffer. […] After reference and buffer signal correction, sensogram data were fitted using Prism 8.0 (GraphPad). Equilibrium response (Req) data were fitted to a single-site interaction model to determine Kd: (1) Req=(CRmax/C+Kd)+B, where C is the analyte concentration and Rmax is the maximum response at saturation and B is the background resonance.

Amino acid sequences for entries named in this document (tags omitted). Residues count along the entry.
UniProt P0ABH0, 1-405: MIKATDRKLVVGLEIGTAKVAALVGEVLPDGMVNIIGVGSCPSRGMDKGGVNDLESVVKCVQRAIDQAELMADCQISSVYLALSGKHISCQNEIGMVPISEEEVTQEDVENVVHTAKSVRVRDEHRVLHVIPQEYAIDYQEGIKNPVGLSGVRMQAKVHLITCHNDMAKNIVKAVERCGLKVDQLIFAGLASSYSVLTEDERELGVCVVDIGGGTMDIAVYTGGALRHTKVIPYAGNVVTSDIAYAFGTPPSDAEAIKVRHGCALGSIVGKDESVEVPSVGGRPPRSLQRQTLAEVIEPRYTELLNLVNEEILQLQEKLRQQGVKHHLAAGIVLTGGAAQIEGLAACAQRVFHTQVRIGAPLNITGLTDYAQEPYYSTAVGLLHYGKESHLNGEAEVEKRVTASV

`CSCC[C@H](N)C(=O)N[C@@H](C)C(=O)N[C@@H](CCC(N)=O)C(=O)N[C@@H](CCCNC(=N)N)C(=O)N[C@@H](CC(=O)O)C(=O)N[C@@H](Cc1ccc(O)cc1)C(=O)N[C@H](C(=O)N[C@@H](C)C(=O)N[C@@H](C)C(=O)N[C@@H](CO)C(=O)N[C@@H](CCC(N)=O)C(=O)N1CCC[C@H]1C(=O)N[C@@H](C)C(=O)N1CCC[C@H]1C(=O)N[C@@H](CO)C(=O)N[C@@H](CCCNC(=N)N)C(=O)N[C@@H](CCCNC(=N)N)C(=O)N[C@@H](CCCCN)C(=O)N[C@@H](CCCCN)C(=O)N[C@@H](CO)C(=O)N[C@H](C(=O)N[C@@H](CO)C(=O)N[C@@H](CCCNC(=N)N)C(=O)N[C@@H](CCCCN)C(=O)N[C@@H](CCCCN)C(=O)N[C@@H](CCC(N)=O)C(=O)N[C@@H](CCCNC(=N)N)C(=O)N[C@@H](CC(N)=O)C(=O)N[C@@H](CC(C)C)C(=O)N1CCC[C@H]1C(=O)N[C@@H](C)C(=O)N[C@H](C(=O)O)C(C)C)[C@@H](C)O)C(C)C` [EcFtsN^1-32, ΔRK1] gave a Kd of 11.6 ± 0.8 µM.
